The values below come from ChEMBL document CHEMBL1641504, “Characterization and anions inhibition studies of an α-carbonic anhydrase from the teleost fish Dicentrarchus labrax” (Bioorg Med Chem, 2011).

Amino acid sequences for entries named in this document (tags omitted). A change or cut given only in a name is not applied to a line headed by its entry.
UniProt P00915: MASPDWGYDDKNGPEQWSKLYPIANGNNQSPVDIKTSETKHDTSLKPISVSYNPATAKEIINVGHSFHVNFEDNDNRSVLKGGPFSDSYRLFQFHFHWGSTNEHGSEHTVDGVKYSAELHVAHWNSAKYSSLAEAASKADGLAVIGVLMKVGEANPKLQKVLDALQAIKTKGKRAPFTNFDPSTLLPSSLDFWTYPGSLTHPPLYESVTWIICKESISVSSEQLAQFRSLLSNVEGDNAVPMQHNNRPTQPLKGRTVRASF

The experiment has as its target Carbonic anhydrase 1 (Homo sapiens, UniProt P00915).

As usually defined, the Ki is a dissociation constant, usually derived from enzyme kinetics or from competition with a known ligand. A high value points to a looser hold on the target.

Consider `[F-].[K+]` [POTASSIUM FLUORIDE], for which the Ki is over 300 mM.
